## Apparent affinities of Ab-14 variants for a coronavirus HR2 peptide

All variants were tested on one target, the spike HR2 peptide PDVDLGDISGINAS (SARS-CoV-2).

Each scFv is VH, a 15-residue (Gly4Ser)3 linker, VL, as in the parent Ab-14, and differs from it in the CDRs of the light chain only.
VH: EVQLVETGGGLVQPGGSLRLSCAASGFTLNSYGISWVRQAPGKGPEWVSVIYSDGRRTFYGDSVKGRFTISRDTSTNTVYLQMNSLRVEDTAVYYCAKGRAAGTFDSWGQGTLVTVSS
VL: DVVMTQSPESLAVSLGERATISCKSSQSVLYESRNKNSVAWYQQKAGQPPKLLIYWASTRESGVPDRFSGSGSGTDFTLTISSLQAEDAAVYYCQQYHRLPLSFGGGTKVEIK

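The parent was found by panning a naive human phage display library on the peptide. The variants were designed computationally from a first round of random CDR variants and then made and measured. Their group label is 14L_GP_Gen (GP: Gaussian process model; Gen: genetic algorithm; a sequence that several methods proposed may carry one label only). The assay is AlphaSeq: two haploid yeast populations carry antibody and antigen on their surface. Mating (16 h, 30 °C) was followed by selection of diploids and sequencing of their barcodes. Each replicate has its own calibration line, from reference interactions of the BCL2 family. There are six technical replicates.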

Each variant is given by its three light chain CDRs, as the data file delimits them; those of the parent are KSSQSVLYESRNKNSVA, WASTRES, QQYHRLPLS.
Numbers give log10(Kd / nM), so 0 is 1 nM and 3 is 1 µM. Smaller is tighter.
Averages over replicates are reported, and they cover detected replicates only.
Of ten entries with the parent sequence, four were seen in most replicates (averages 0.34 to 2.37), three in one and three in none, so single entries are noisy.

| # | CDR-L1 | CDR-L2 | CDR-L3 | log10 Kd, replicates | mean log10 Kd (nM) | control signals |
|---|---|---|---|---|---|---|
| 1 | KVEQSHLYESRNKNSVA | NASTRES | QQYHRLPLS | -0.05 / -0.01 / -0.32 / -0.28 / -0.36 / -0.19 | -0.20 | 1 of 18 (2.61) |
| 2 | KVSQSVLYESRNFNSVA | DASTRES | QQYHRLPLS | 0.27 / 0.17 / 0.12 / -0.02 / 0.17 / 0.34 | 0.18 | 1 of 18 (3.51) |
| 3 | KLSMSVLYESRNKNSVA | HASTRES | QQYHRLPLS | -0.13 / -0.21 / -0.13 / -0.49 / -0.30 / -0.02 | -0.22 | 0 of 18 |
| 4 | KVSQSVLYESRNWNSVA | DASTRES | QQYHRLPLS | 0.15 / -0.15 / -0.43 / -0.57 / -0.28 / -0.34 | -0.27 | 0 of 18 |
| 5 | KLPQSVLYESRNKNSVA | AASTREV | QQYHRLPLS | 0.06 / -0.34 / -0.16 / -0.39 / -0.26 / -0.35 | -0.24 | 2 of 18 (2.44) |
| 6 | KFSQSVLYESRNKNSVA | GASTRES | QDYHRLPLS | 0.32 / 0.03 / 0.01 / -0.15 / 0.05 / 0.00 | 0.04 | 1 of 18 (2.33) |
| 7 | KLSQSWDYESRNKNNVA | NASTRES | QQYHRLPLS | -0.16 / -0.24 / -0.15 / -0.37 / -0.26 / 0.00 | -0.20 | 0 of 18 |
| 8 | KLSQSVLMESRNKNSVA | DASTRLS | QQYHRLPLS | 0.45 / 0.25 / 0.25 / 0.11 / 0.15 / 0.45 | 0.28 | 1 of 18 (3.42) |
| 9 | KLSQSVLYEMRNKNSVA | NASTRCS | QQYHRLPLS | 0.77 / 0.96 / 0.60 / 0.54 / 0.47 / 0.80 | 0.69 | 0 of 18 |
| 10 | KFSQSVLYESRNKNSVA | EASTREM | QQYHRLPLS | 1.75 / 0.73 / 0.17 / 0.16 / 0.65 / 0.63 | 0.68 | 0 of 18 |
| 11 | KLSGSQLYESRNKNSVA | HASTRES | QQYHRLPLS | -0.06 / -0.39 / -0.39 / -0.25 / -0.46 / -0.36 | -0.32 | 1 of 18 (2.31) |
| 12 | KVAQSVLYESRNKNSVA | NASTRES | QQYHRLPLS | -0.03 / 0.14 / -0.11 / -0.10 / 0.17 / 0.11 | 0.03 | 0 of 18 |
| 13 | KLQQSVMYESRNKNSVA | NASTRLS | QQYHRLPLS | -0.14 / -0.22 / -0.27 / -0.22 / -0.16 / -0.18 | -0.20 | 2 of 18 (3.17) |
| 14 | KLQQSFLYESRNKNSVA | DASQRES | QQYHRLPLS | -0.48 / -0.45 / -0.62 / -0.55 / -0.68 / -0.46 | -0.54 | 1 of 18 (3.53) |
| 15 | KVSQSDLYESRNKNAVA | NASTRES | QQYHRLPLS | 0.09 / 0.05 / -0.25 / -0.12 / 0.17 / 0.11 | 0.01 | 0 of 18 |
| 16 | KVSQSELYESRNKNSVA | NASQRMS | QQYHRLPLS | 0.33 / -0.05 / -0.17 / 0.08 / -0.03 / 0.09 | 0.04 | 1 of 18 (2.42) |
| 17 | KLEQSVLYEQRNKNSVA | NASTRES | QQYHRLPLS | -0.15 / -0.35 / -0.38 / -0.30 / -0.30 / -0.26 | -0.29 | 3 of 18 (2.65) |
| 18 | VLSQSVLYESRNKNSVA | NASQRES | QQYHRLPLS | -0.22 / -0.12 / -0.06 / -0.38 / -0.58 / 0.11 | -0.21 | 0 of 18 |
| 19 | KLSQSVTYESRNKNSVA | NASTRES | QQYHRLPLS | -0.10 / -0.15 / -0.27 / -0.42 / -0.25 / -0.18 | -0.23 | 4 of 18 (2.75) |
| 20 | KLQQSWLYESRNKNSVA | NASTRLS | QQYHRLPLS | -0.17 / -0.20 / -0.18 / -0.71 / 0.05 / -0.36 | -0.26 | 0 of 18 |
| 21 | KLMQSCLYESRNKNSVA | NASTRES | QQYHRLPLS | 0.13 / 0.04 / -0.02 / 0.02 / 0.05 / 0.20 | 0.07 | 2 of 18 (3.31) |
| 22 | KLPQSWLYESRNKNSVA | EASQRES | QQYHRLPLS | -0.02 / -0.23 / -0.06 / -0.24 / -0.29 / -0.09 | -0.15 | 0 of 18 |
| 23 | KVSQSELYESRNKNNVA | NASTRES | QQYHRLPLS | -0.10 / -0.25 / -0.56 / -0.64 / -0.64 / 0.04 | -0.36 | 2 of 18 (3.45) |
| 24 | KVSPSVLYESRNKNAVA | DASTRES | QQYHRLPLS | -0.48 / -0.59 / -0.64 / -0.62 / -0.66 / -0.51 | -0.58 | 2 of 18 (2.83) |
| 25 | KLSQSMLYESRNFNSVA | NASQRES | QQYHRLPLS | -0.01 / -0.03 / 0.10 / 0.35 / 0.38 / 0.39 | 0.20 | 0 of 18 |
| 26 | KLSQSVLYESRNKNSVA | EASTRES | QSYHRLPLS | -0.12 / -0.41 / -0.51 / -0.50 / -0.37 / -0.37 | -0.38 | 1 of 18 (2.40) |
| 27 | KVSQSWLYESRNKNSVA | DASTRES | QQYHRLPLS | -0.06 / -0.27 / -0.31 / -0.51 / -0.21 / -0.23 | -0.26 | 0 of 18 |
| 28 | KISQSELYESRNKNSVA | NASTRLS | QQYHRLPLS | 0.18 / -0.07 / -0.12 / -0.15 / -0.08 / -0.11 | -0.06 | 2 of 18 (2.88) |
| 29 | KLSQSELYESRNKNSVA | NASTRMS | QQYHRLPLS | 0.09 / 0.14 / 0.76 / 0.01 / 0.37 / 1.06 | 0.40 | 0 of 18 |
| 30 | KVSPSWLYESRNKNSVA | NASQRES | QQYHRLPLS | -0.08 / -0.25 / -0.26 / -0.42 / -0.23 / -0.13 | -0.23 | 2 of 18 (3.98) |
| 31 | KLEMSWLYESRNKNSVA | NASTRES | QQYHRLPLS | 0.17 / -0.05 / -0.03 / -0.10 / -0.06 / 0.19 | 0.02 | 2 of 18 (3.11) |
| 32 | KLQQSELYESRNKNSVA | NASTREV | QQYHRLPLS | 0.07 / -0.04 / 0.01 / -0.03 / 0.02 / 0.01 | 0.01 | 3 of 18 (3.39) |

Picked from the list: the 2 lowest averages where every replicate gave a value.

{"CDR-L1": "KVSPSVLYESRNKNAVA", "CDR-L2": "DASTRES", "CDR-L3": "QQYHRLPLS", "log10 Kd, replicates": "-0.48 / -0.59 / -0.64 / -0.62 / -0.66 / -0.51", "mean log10 Kd (nM)": "-0.58", "control signals": "2 of 18 (2.83)"}
{"CDR-L1": "KLQQSFLYESRNKNSVA", "CDR-L2": "DASQRES", "CDR-L3": "QQYHRLPLS", "log10 Kd, replicates": "-0.48 / -0.45 / -0.62 / -0.55 / -0.68 / -0.46", "mean log10 Kd (nM)": "-0.54", "control signals": "1 of 18 (3.53)"}

The authors' rule: three or more of the six replicates give a measured affinity, fewer mean a poor binder.
Background: pairings of all light chain designs with three empty control strains gave a value in 4% of cases (median 2.64, 5th percentile 1.59). Values in that range, when seen in few replicates, are hard to tell from nonspecific mating. The control count says in how many pairings with the empty strains this scFv gave a signal, with their mean in brackets.
Values of this round are not directly comparable with the first-round values of the same sequences.

Values reported by Li et al. 2023, doi:10.1038/s41467-023-39022-2 (FLAb copy).